## Measured affinities in a library of Ab-14 heavy chain variants

Target peptide (SARS-CoV-2 spike, HR2 region): PDVDLGDISGINAS

Each scFv is VH, a 15-residue (Gly4Ser)3 linker, VL, as in the parent Ab-14, and differs from it in the CDRs of the heavy chain only.
VH: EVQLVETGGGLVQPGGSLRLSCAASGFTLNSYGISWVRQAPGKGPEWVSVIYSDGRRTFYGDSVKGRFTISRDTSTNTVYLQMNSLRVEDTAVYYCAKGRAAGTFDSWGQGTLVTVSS
VL: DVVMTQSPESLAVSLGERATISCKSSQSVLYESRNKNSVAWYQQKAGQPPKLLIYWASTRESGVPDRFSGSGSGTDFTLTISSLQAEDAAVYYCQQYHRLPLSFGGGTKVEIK

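The starting antibody came from a phage panning campaign against this peptide. These sequences belong to a second round, designed from the earlier measurements on random variants of the parent. Several design methods are mixed in this list. The assay is AlphaSeq: two haploid yeast populations carry antibody and antigen on their surface. Pairs that bind mate more often; barcode pairs of the diploids are counted by sequencing. Read counts were normalised to the haploid input and turned into Kd by a linear fit to BCL2-family pairs of known affinity, for each replicate. Mating was done six times.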

Each variant is given by its three heavy chain CDRs, as the data file delimits them; those of the parent are GFTLNSYGIS, VIYSDGRRTFYGDSVK, GRAAGTFDS.
This list holds designs with more than six substitutions.
Affinities are written as log10 Kd with Kd in nM; a lower number is a better binder.
An entry "ND" has no value in the source: the pair was not observed among the diploids in that replicate. This suggests poor binding but is not conclusive.
The authors' rule: three or more of the six replicates give a measured affinity, fewer mean a poor binder.
Nonspecific signal, from three strains lacking the peptide, appeared in 1% of pairings of all heavy chain designs, centred on 2.08 (5% of these signals below 0.84); values are not corrected for it. For each scFv, signals with the empty controls are counted beside the result.
The parent sequence was in this pool as ten entries: three were never detected, three once, and four in most replicates, with averages from 0.34 to 2.37.
Values of this round are not directly comparable with the first-round values of the same sequences.

GFDLEEYGIS, VIYADGRRTFYSDSVK, GENAGTFDV: -0.59, -0.97, -1.14, -1.75, -0.97, -1.11 (controls 0 of 18).
GFDLNEYGIS, VIYADGRRTFYTDSVK, GAHAGTFDQ: -0.03, 0.08, -0.34, -0.47, -0.23, -0.42 (controls 0 of 18).
GFNLNEYGIS, VIYADGRRTFYADSVK, GTQAGTFDM: -0.49, -0.25, -0.16, -0.41, -0.26, -0.51 (controls 0 of 18).
GFNLNEYGIS, VIYADGRRKFYADSVK, GNTAGTFDL: -0.61, -0.70, -0.80, -0.78, -0.76, -0.74 (controls 0 of 18).
GFDLNEYGIS, VIYADGMRTAYVDSVK, GEVAGTFDV: -0.70, -0.89, -0.81, -0.70, -0.75, -0.63 (controls 0 of 18).
GFDLEDYGIS, VIYADGMRTQYIDSVK, GEQAGTFDL: 1.17, 0.99, 0.63, 0.87, 1.06, 0.63 (controls 0 of 18).
GFDLNEYGIS, VIYADGRRTAYLDSVK, GELAGTFDT: 0.53, 0.34, 0.13, -0.18, 0.04, -0.02 (controls 0 of 18).
GFDLNEYGIS, VIYADGMRTAYTDDVK, GNVAGTFDI: -0.61, -0.99, -0.49, -0.86, -0.78, -0.45 (controls 0 of 18).
GFDLNEYGIS, VIYADGKRTFYADSVK, GEIAGTFDV: 1.02, 0.79, 0.62, 0.86, 0.40, 0.64 (controls 0 of 18).
GFDLDEYGIS, VIYADGMRKYYADSVK, GNVAGTFDV: -0.54, -0.59, -0.73, -1.10, -0.85, -0.77 (controls 0 of 18).
GFDLNEYGIS, VIYADGVRTFYVDSVK, GETAGTFVS: -0.01, -0.15, -0.31, -0.22, 0.22, 0.20 (controls 0 of 18).
GFNLNEYGIS, VIYADGRRRAVIDQVK, GLVSFMFDL: ND, ND, ND, ND, ND, ND (controls 0 of 18).
GFDLEEYGIS, VIYADGKRTAYADSVK, GEVAGTFDV: -0.19, -0.43, -0.72, -0.38, -0.53, -0.24 (controls 0 of 18).
GFNLDEYGIS, VIYADGRRTAYADSVK, GEVAGTFDV: -0.35, -0.47, -0.73, -0.69, -0.68, -0.31 (controls 0 of 18).
GFDLNEYGIS, VIYADGQRTAYADDVK, GQNAGTFDI: 0.11, -0.19, -0.38, -0.25, -0.49, -0.11 (controls 0 of 18).
GFDLEDYGIS, VIYADGVRTAYSQNSK, GENGVALYI: ND, ND, ND, ND, ND, ND (controls 0 of 18).
GFGLDEYGIS, VIFADGQRKYYTDNVK, GHFGEDGVV: ND, ND, ND, ND, ND, ND (controls 0 of 18).
GFDLNEYGIS, VIYADGRRTAYSDSVK, GEVAGTFVM: -0.05, -0.15, -0.49, -0.51, -0.52, -0.50 (controls 0 of 18).
GEDLDEYGIS, VIYADGLRTAYADNFK, GHLGGQFDM: ND, 1.34, 3.02, ND, 1.90, 2.25 (controls 0 of 18).
GFDLNEYGIS, VIYADGMRTQYIDSVK, GENAGTFDL: 0.29, 0.27, -0.26, -0.10, 0.38, 0.29 (controls 1 of 18).
GMDIENYGIS, VIYADGKRKAYAQKFK, GHTGGTFAD: ND, ND, 0.15, ND, ND, ND (controls 0 of 18).
GFNLNEYGIS, VIYADGRRTFYADSVK, GEIAGTFDT: -0.30, -0.61, -0.46, -0.89, -0.35, -0.42 (controls 0 of 18).
GFDLNEYGIS, VIYADGKRTFYSDSVK, GTVAGTFDV: -0.47, -0.54, -0.43, -0.63, -0.66, -0.41 (controls 0 of 18).
GFDLNEYGIS, VIYADGMRTFYADSVK, GKNAGTFLM: ND, 2.03, ND, 2.50, 2.98, ND (controls 0 of 18).
GFDLNEYGIS, VIYADGMRTYYADSVK, GNTAGTFDL: ND, 0.06, -0.79, -1.30, -0.76, -0.71 (controls 0 of 18).
GFDLNEYGIS, VIYADGMRTVYSDSVK, GNQAGTFDV: -1.10, ND, -0.44, -1.31, -0.17, ND (controls 0 of 18).
GFDLEEYGIS, VIYADGMRQMYAQNVK, GYNQSDMTV: ND, ND, ND, ND, ND, ND (controls 0 of 18).
GFNLNEYGIS, VIYADGRRTFYADDVK, GEVAGTFDL: -0.27, -0.59, -0.86, -0.95, -0.89, -0.63 (controls 0 of 18).
GFDLDEYGIS, VIYADGKRTAYADKVK, GNVAGTFDL: -0.22, -0.62, 0.61, -0.94, -0.08, 0.50 (controls 0 of 18).
GFDLNEYGIS, VIYADGRRVEYNDKVK, GMLTGTFDQ: ND, ND, ND, ND, ND, ND (controls 0 of 18).
GFDLDEYGIS, VIYADGRRTFYADSVK, GELAGTFVS: 0.08, 0.29, 0.03, -0.10, 0.83, 0.16 (controls 0 of 18).
GFDLDEYGIS, VIYADGRRTFYADSVK, GQNAGTFDL: -0.92, -0.74, -0.30, -0.20, -0.90, -0.82 (controls 0 of 18).
GFDLNEYGIS, VIYADGRRTMYTDSVK, GQNAGTFDS: -0.09, -0.02, 0.09, -0.28, 0.09, 0.29 (controls 0 of 18).
GFDLNEYGIS, VIYADGMRQAYADSVK, GNNAGTFDV: 0.23, -0.08, -0.36, -0.37, -0.24, 0.42 (controls 0 of 18).
GKNIDEYGVS, VIYADGKRTAYANNFK, GSNAGSFKS: ND, ND, ND, ND, ND, ND (controls 0 of 18).
GFDLNEYGIS, VIYADGVRTYYADSVK, GNVAGTFDI: -0.69, -1.22, -1.05, -1.00, -1.21, -0.54 (controls 0 of 18).
GFDINEYGIS, VIYADGQRVAYTNSFK, GTQAGQNIN: ND, 4.25, ND, ND, ND, ND (controls 2 of 18).
GFDLNEYGIS, VIYADGQRTAYSDSVK, GEVAGTFDQ: 0.27, -0.19, -0.28, -0.18, -0.63, -0.07 (controls 0 of 18).
GFDLNEYGIS, VIYADGRRTFYSDSVK, GTVAGTFDT: -0.19, -0.37, -0.38, -0.52, -0.21, -0.19 (controls 0 of 18).
GFDLNEYGIS, VIYADGRRTAYTDSVK, GHTAGTFFL: 0.15, 0.02, -0.11, -0.38, -0.05, 0.05 (controls 2 of 18).
GFDLNEYGIS, VIYADGKRTAYADSVK, GTNAGTFDT: -0.41, -0.42, -0.17, -0.61, -0.02, -0.11 (controls 0 of 18).
GFDLDEYGIS, VIYADGRRTAYIDSVK, GNVAGTFDV: 0.38, -0.19, 0.22, 0.54, 0.05, 1.07 (controls 0 of 18).
GFSLDEYGIS, VIYADGQRSAYSENVK, GQHGGMTVS: ND, ND, ND, ND, ND, 3.07 (controls 0 of 18).
GFDLDEYGIS, VIYADGKRTAYVDSVK, GNNAGTFDV: 0.18, 1.11, 0.27, -0.15, 0.29, 0.31 (controls 0 of 18).
GFDLDEYGIS, VIYADGRRTYYADSVK, GNNAGTFDV: -0.04, 0.45, -0.24, -0.27, 0.45, 0.22 (controls 1 of 18).
GFDLNEYGIS, VIYADGVRTVYADSVK, GNTAGTFDV: 0.13, -0.53, -0.32, -0.64, -0.70, -0.51 (controls 0 of 18).
GMDLEEYGIS, VIYADGVRARYVNDVK, GQVDAILVV: ND, ND, ND, ND, ND, ND (controls 0 of 18).
GFDLNEYGIS, VIYADGVRTFYADSVK, GNNAGTFDS: 1.30, 0.99, 0.77, 0.65, 0.58, 1.00 (controls 0 of 18).
GFDLNEYGIS, VIYADGQRTAYADSVK, GTVAGTFDV: 0.25, 0.40, -0.08, 0.12, 0.10, 0.58 (controls 0 of 18).

From the list, the first 7 with no signal in any replicate:

For GFNLNEYGIS, VIYADGRRRAVIDQVK, GLVSFMFDL, the assay gave ND, ND, ND, ND, ND, ND (controls 0 of 18).
For GFDLEDYGIS, VIYADGVRTAYSQNSK, GENGVALYI, the assay gave ND, ND, ND, ND, ND, ND (controls 0 of 18).
For GFGLDEYGIS, VIFADGQRKYYTDNVK, GHFGEDGVV, the assay gave ND, ND, ND, ND, ND, ND (controls 0 of 18).
For GFDLEEYGIS, VIYADGMRQMYAQNVK, GYNQSDMTV, the assay gave ND, ND, ND, ND, ND, ND (controls 0 of 18).
For GFDLNEYGIS, VIYADGRRVEYNDKVK, GMLTGTFDQ, the assay gave ND, ND, ND, ND, ND, ND (controls 0 of 18).
For GKNIDEYGVS, VIYADGKRTAYANNFK, GSNAGSFKS, the assay gave ND, ND, ND, ND, ND, ND (controls 0 of 18).
For GMDLEEYGIS, VIYADGVRARYVNDVK, GQVDAILVV, the assay gave ND, ND, ND, ND, ND, ND (controls 0 of 18).

Source: Li et al. 2023 (doi:10.1038/s41467-023-39022-2), MIT Lincoln Laboratory and A-Alpha Bio; data file from the FLAb repository.